Measured values reported in ChEMBL document CHEMBL4610007, “Design and synthesis of boron-containing diphenylpyrimidines as potent BTK and JAK3 dual inhibitors” (Bioorg Med Chem, 2020).

The chains behind the UniProt entries cited, without tags or fusion partners. Where a name states a change or a piece, a line headed by the entry shows the natural chain unless it says otherwise.
UniProt Q06187: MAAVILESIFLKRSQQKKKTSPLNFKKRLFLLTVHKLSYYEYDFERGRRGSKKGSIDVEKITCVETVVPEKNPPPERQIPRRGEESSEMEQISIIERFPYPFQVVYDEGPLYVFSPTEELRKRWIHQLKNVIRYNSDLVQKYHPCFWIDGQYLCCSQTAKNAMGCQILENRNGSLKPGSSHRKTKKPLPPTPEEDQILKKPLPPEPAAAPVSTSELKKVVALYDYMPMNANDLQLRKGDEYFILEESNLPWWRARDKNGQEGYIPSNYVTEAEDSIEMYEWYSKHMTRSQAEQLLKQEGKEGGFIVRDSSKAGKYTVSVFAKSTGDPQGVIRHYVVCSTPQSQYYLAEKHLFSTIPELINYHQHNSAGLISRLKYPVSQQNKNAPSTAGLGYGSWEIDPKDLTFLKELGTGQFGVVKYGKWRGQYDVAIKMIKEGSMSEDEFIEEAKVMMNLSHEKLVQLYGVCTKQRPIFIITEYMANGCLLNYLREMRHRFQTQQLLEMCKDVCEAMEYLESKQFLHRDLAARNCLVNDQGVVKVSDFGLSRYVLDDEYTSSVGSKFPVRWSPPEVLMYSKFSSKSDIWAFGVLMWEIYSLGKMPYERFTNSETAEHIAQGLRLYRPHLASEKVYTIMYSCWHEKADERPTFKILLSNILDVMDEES

Target: Tyrosine-protein kinase BTK (Homo sapiens, UniProt Q06187)

SMILES: C=CC(=O)Nc1cccc(Nc2nc(Nc3ccc(OCCOC)cc3)ncc2F)c1 [SPEBRUTINIB]
- IC50: 9.8 nM
